Reference: PMC8119466, “A screen of FDA-approved drugs identifies inhibitors of protein tyrosine phosphatase 4A3 (PTP4A3 or PRL-3)” (Scientific Reports, 2021)

Tested on: HEK293T cells
Assay: MTT viability assay
Assay type: cell-based, human
Conditions: drug doses 1 to 100 µM, 16 h, normalized to 1% DMSO

## Oc1c(Cl)cc(Cl)c(Cl)c1Cc1c(O)c(Cl)cc(Cl)c1Cl [Hexachlorophene, reference compound]
  viability (MTT): increased MTT absorbance
